Screening results: PubChem, National Center for Advancing Translational Sciences (NCATS)
miR-21 reporter – miR-21 reporter, rising signal. HeLa miR-21 FLuc reporter, luciferase, 48 h. Potency, µM (highest dose often 38.3 µM), for the others: at the highest dose reporter change, positive = more light. 340,000 tested, under 10 active. AID 2288; active = well fitted rising curve with a large enough effect; inconclusive = small, poorly fitted or top-dose-only effect; inactive = no such curve, though single readings can be large or run the other way;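 further: % of control where 0% means no effect; miR-21 action dims this reporter so a rising signal means less miR-21 action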
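Compounds were titrated across several concentrations (up to approximately 40 uM) and incubated 48 hours with HeLa miR-21-FLuc reporter cells (miR-21 target sequence downstream of FLuc, endogenous miR-21). Readout was firefly luciferase luminescence after lytic detection reagent.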
LMNA splice mod – changes lamin A minigene splicing in HeLa cells | 200,000 compounds, 0.01% hits | HeLa LMNA splicing GFP/RFP minigene ratio, 48 h | AID 1487 | Potency, µM (highest dose often 46.1 µM), without a hit: at the highest dose ratio change, negative = inhibition, hits mostly inhibitors; active means well fitted inhibition curve with a large enough effect in the signal ratio, with a control signal flat, not every such curve was filed as active; inconclusive means small, poorly fitted or top-dose-only effect, or effect the other way, or a change in a side signal; the % refers to the signal ratio; further: potency means the concentration at half of the fitted maximal effect; on the % scale 0 is the no-effect control and ±100 the full control effect
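Read-out is the ratio of GFP to DsRed2 object intensity, acquired by 488 nm laser-scanning cytometry on HeLa lamin A-EGFP minigene reporter cells. Compound incubation 48 hrs at 37 °C in Opti-MEM with 2% FBS; DMSO 0.5% final.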
KDM4E inh – blocks human JMJD2E demethylase activity | B2RXH2 | JMJD2E catalytic domain, FDH-coupled NADH fluorescence (FDH is formaldehyde dehydrogenase) | Potency, µM (top dose mostly 57.1 µM), inactives show at the highest dose activity change, negative = inhibition, actives largely listed as inhibitors | AID 2147 | 230,000 compounds, 1.6% hits; active means well fitted inhibition curve with a large enough effect, not every such curve was filed as active; inconclusive means small, poorly fitted or top-dose-only effect, or another doubt; inactive means no such curve, though single readings can be large or run the other way;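 further: potency means the concentration at half of the fitted maximal effect; 0% = wells with enzyme and -100% = buffer wells without enzyme; nearly all actives have a fitted effect of over 50% in size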
ALDH1A1 block – blocks purified human ALDH1A1 activity. P00352. Purified ALDH1A1, NADH fluorescence, propionaldehyde substrate. Potency, µM (series often up to 75.3 µM), for the others: top-dose activity, negative = inhibition, most hits filed as inhibitors. 220,000 compounds, 7.3% hits. AID 1030; active means well fitted inhibition curve with a large enough effect, not every such curve was filed as active; inconclusive means small, poorly fitted or top-dose-only effect, or another doubt; inactive means no such curve, though single readings can be large or run the other way;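 further: potency means the concentration at half of the fitted maximal effect; plate controls were no enzyme wells and a reference inhibitor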
Sfp inh – blocks B. subtilis Sfp PPTase activity; Q9F4F7; Biochemical Sfp PPTase activity, qHTS; Potency, µM, for the others: max response, negative = inhibition, most hits filed as inhibitors; actives 3.5% (n = 310,000); AID 1490; active = well fitted inhibition curve with a large enough effect; inconclusive = small, poorly fitted or top-dose-only effect, or another doubt; inactive = no such curve, though single readings can be large or run the other way;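 also: the enzyme is Sfp with the accession as filed and its product quenches rhodamine fluorescence; potency is read from the fitted curve at half-maximal effect; 0% = enzyme reaction without inhibitor and -100% = no enzyme wells; top concentration of the series not given in the record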
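Sfp 15 nM + cpd, 15 min RT; start w/ rhodamine-CoA 5 uM, BHQ-2-YbbR 12.5 uM (final); 50 mM Hepes pH 7.6, 10 mM MgCl2, 0.01% NP-40, 0.01% BSA; read 525/598 nm at 0 and 30 min.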
G9a inh – blocks human histone lysine methyltransferase G9a | AID 504332 | Potency, µM (doses to about 102 µM), for the others: at the highest dose activity, negative = inhibition, usual class: inhibitors | G9a H3K9 monomethylation, AlphaScreen, 2 h | 350,000 compounds, 8.8% hits | Q96KQ7; further: potency means the concentration at half of the fitted maximal effect; on the % scale 0 is the no-effect control and ±100 the full control effect; nearly all actives have a fitted effect of over 75% in size
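Compounds were preincubated with 20 nM G9a for 15 min, after which biotinylated H3K9 peptide (500 nM) and SAM (20 uM) started a 2 h room-temperature reaction. Monomethylated product was quantified by antibody-based AlphaScreen chemiluminescence.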
* marks the source's active call; other numbers are inactive results; ? = inconclusive; / = not tested or not shown; [ ] = remark or other dose. Rows were chosen to be rich in hits. Some 13% of all compounds tested hit in one or more screens of this group. Unless noted, the call rests on the fitted dose curve; in most records, active means well fitted curve in the direction sought with a large enough effect; inconclusive means small, poorly fitted or top-dose-only effect, or another doubt; inactive means no such curve, though single readings can be large; an effect the other way counts as inactive or inconclusive.

LMNA splice mod,SMILES,KDM4E inh,ALDH1A1 block,Sfp inh,miR-21 reporter,G9a inh
/,Oc1ccc2ccccc2c1CNc1ccc(Br)cn1,/,/,0%,-15%,/
10%,Cn1c(NCc2c(O)ccc3ccccc23)nc2ccccc21,?,?,-9%,9%,?
-7%,NC(=S)Nc1cnc2ccccc2c1,-5%,-6%,3%,-31%,50µM*
-12%[46 µM],COc1ccc(NC(=S)Nc2cnc3ccccc3c2)c(OC)c1,?,?,-1%,-18%,?
/,COc1ccc(CCNC(=O)NCc2noc3ccccc23)c(OC)c1,/,/,/,-14%,-1%[59 µM]
/,CCn1c2ccccc2c2cc(CN3CCN(Cc4cc(OC)ccc4O)CC3)ccc21,18µM*,35µM*,50µM*,-2%,10µM*
/,CCn1c2ccccc2c2cc(CN3CCN(Cc4cc(OC)c(O)c(OC)c4)CC3)ccc21,/,/,/,-22%,0.71µM*
3%,COc1ccc(CN2CCN(C)CC2)cc1OCc1ccccc1,1%,-2%,-16%,-7%,?
?,Cc1cccc(S(=O)(=O)Nc2cccc3c2C(=O)c2ccccc2-3)c1,54%,?,-18%,0%,-18%[59 µM]
/,CC(C)c1ccc(S(=O)(=O)/N=C2\C=C(NS(=O)(=O)c3ccccc3)C(=O)c3ccccc32)cc1,/,/,-17%,-2%,6.3µM*
/,Cc1ccc(C)c(S(=O)(=O)/N=C2\C=C(NS(=O)(=O)c3ccccc3)C(=O)c3ccccc32)c1,/,/,-7%,1%,14µM*
26%[46 µM],CC(C)c1ccc(S(=O)(=O)/N=C2/C=CC(=O)c3ccccc32)cc1,-29%,25µM*,?,15%,11µM*
/,CCc1ccc(S(=O)(=O)/N=C2\C=C(NS(=O)(=O)c3ccccc3)C(=O)c3ccccc32)cc1,/,/,-6%,-31%,13µM*
/,CC(C)[n+]1ccn(C2=C([O-])c3ccccc3C(=O)/C2=N\S(=O)(=O)c2ccccc2)c1,?,/,-3%,23%,-36%[12.7 µM]
/,CCc1ccc(S(=O)(=O)Nc2ccncc2)cc1,/,/,15%,-2%,/
/,CC1(C)O[C@@H]2[C@H](O1)[C@@H](CO)O[C@H]2n1ccc(=O)[nH]c1=O,/,/,/,/,10%[2.33 µM]
/,COc1cc(-n2c(=O)c3ccccc3n(Cc3cccc(Cl)c3)c2=O)cc(OC)c1OC,/,/,/,-8%,-11%[59 µM]
/,CCc1nnc(NS(=O)(=O)c2ccc(NC(=O)c3ccc(C#N)cc3)cc2)s1,/,/,14%,1%,?
/,COc1cc(Cl)c(C)cc1NC(c1ccccc1)c1nnc(-c2ccccc2Cl)o1 (stereo not drawn),/,/,/,-10%,-10%[59 µM]
/,Cc1ccc(N(CC(=O)NCc2ccco2)C(=O)CCC(=O)Nc2ccccn2)c(C)c1,/,/,21%,-3%,22µM*
0%[46 µM],CCC(C)(C)NC(=O)CN(Cc1ccccc1Cl)C(=O)CCC(=O)Nc1cc(C)ccn1,-25%,14µM*,20µM*,0%,/
6%,Cc1ccnc(NC(=O)CCC(=O)N(CC(=O)NCCc2ccccc2)Cc2ccco2)c1,0%,7.9µM*,6%,-1%,-23%[59 µM]
/,C[N+](C)([O-])Cc1cc(-c2ccccc2)ccc1O,/,-9%[13.5 µM],/,/,/
/,CCC(Sc1nnc2c3ccccc3n(C)c2n1)C(=O)Nc1nnc(C(C)C)s1 (stereo not drawn),/,/,/,0%,3%[59 µM]
-1%,COc1ccc2cc(C(=O)N3CCCCCC3)sc(=O)c2c1OC,2%,8.9µM*,2%,-15%,-20%
/,CCc1c(C)nc2nncn2c1NCc1ccc(Cl)cc1,/,/,/,?,4%[59 µM]
/,COC(=O)[C@@H]1C[C@H]1[C@@H](NC(=O)Oc1ccc(F)cc1)c1ccccc1,4%,7.9µM*,9%,/,/
1%,COC(=O)[C@H]1C[C@@H]1[C@H](NC(=O)OCc1ccccc1)c1ccccc1,1%,?,-2%,-5%,13%
?,N#CC1=C(N)NC(SCc2ccc(Cl)cc2)=C(C#N)C12CCCCC2,-4%,13µM*,5%,29%,-12%
-20%,N#CC1=C(N)NC(SCc2ccc(Br)cc2)=C(C#N)C12CCCCC2,15%,?,10%,22%,?

Single records, as listed above.
`COC(=O)[C@@H]1C[C@H]1[C@@H](NC(=O)Oc1ccc(F)cc1)c1ccccc1` in the list: LMNA splice mod = /; KDM4E inh = 4%; ALDH1A1 block = 7.9µM*; Sfp inh = 9%; miR-21 reporter = /; G9a inh = /
`COC(=O)[C@H]1C[C@@H]1[C@H](NC(=O)OCc1ccccc1)c1ccccc1` in the list: LMNA splice mod = 1%; KDM4E inh = 1%; ALDH1A1 block = ?; Sfp inh = -2%; miR-21 reporter = -5%; G9a inh = 13%
`N#CC1=C(N)NC(SCc2ccc(Cl)cc2)=C(C#N)C12CCCCC2` in the list: LMNA splice mod = ?; KDM4E inh = -4%; ALDH1A1 block = 13µM*; Sfp inh = 5%; miR-21 reporter = 29%; G9a inh = -12%
